The target in assay [1] is T1, human progesterone receptor-A [PRA] isoform (Homo sapiens, UniProt P06401).
T1 construct: host or cells: insect SF21 cells (baculovirus)
T1 sequence (P06401 1-769 isoform P06401-2): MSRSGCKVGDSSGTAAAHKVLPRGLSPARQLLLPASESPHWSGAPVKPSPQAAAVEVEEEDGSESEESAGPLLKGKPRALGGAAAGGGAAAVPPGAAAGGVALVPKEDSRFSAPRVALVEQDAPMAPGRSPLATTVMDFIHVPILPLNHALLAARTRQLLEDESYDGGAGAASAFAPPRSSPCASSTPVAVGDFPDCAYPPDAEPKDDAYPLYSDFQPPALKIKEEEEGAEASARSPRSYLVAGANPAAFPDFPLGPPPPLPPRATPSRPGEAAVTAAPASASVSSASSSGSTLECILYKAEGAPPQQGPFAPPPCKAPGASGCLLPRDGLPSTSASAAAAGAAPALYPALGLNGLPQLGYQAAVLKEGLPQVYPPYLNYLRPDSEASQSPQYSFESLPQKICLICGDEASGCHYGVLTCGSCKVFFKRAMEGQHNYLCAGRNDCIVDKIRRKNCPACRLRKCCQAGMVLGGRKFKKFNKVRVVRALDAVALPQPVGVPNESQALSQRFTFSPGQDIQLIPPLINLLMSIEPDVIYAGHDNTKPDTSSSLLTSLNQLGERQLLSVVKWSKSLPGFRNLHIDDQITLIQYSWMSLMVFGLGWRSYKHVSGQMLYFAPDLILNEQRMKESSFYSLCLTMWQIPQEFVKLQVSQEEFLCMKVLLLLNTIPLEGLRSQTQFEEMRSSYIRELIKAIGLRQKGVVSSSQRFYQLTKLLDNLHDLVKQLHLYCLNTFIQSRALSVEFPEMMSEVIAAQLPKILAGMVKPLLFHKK
Put plainly: Radioligand binding with human progesterone receptor cytosol ([3H]-progesterone competition). Conditions: PRA cytosol expressed in insect SF21 cells, [3H]Prog ~0.8 nM, 4° C. overnight; Ki by Cheng-Prusoff, KL ~4.5 nM; read-out: Ki (nM) PR.

For assay [2], the target named is T2, human glucocorticoid receptor-α [GRX] isoform (Homo sapiens, UniProt P04150).
T2 construct: host or cells: insect SF21 cells (baculovirus)
T2 sequence (P04150 1-777): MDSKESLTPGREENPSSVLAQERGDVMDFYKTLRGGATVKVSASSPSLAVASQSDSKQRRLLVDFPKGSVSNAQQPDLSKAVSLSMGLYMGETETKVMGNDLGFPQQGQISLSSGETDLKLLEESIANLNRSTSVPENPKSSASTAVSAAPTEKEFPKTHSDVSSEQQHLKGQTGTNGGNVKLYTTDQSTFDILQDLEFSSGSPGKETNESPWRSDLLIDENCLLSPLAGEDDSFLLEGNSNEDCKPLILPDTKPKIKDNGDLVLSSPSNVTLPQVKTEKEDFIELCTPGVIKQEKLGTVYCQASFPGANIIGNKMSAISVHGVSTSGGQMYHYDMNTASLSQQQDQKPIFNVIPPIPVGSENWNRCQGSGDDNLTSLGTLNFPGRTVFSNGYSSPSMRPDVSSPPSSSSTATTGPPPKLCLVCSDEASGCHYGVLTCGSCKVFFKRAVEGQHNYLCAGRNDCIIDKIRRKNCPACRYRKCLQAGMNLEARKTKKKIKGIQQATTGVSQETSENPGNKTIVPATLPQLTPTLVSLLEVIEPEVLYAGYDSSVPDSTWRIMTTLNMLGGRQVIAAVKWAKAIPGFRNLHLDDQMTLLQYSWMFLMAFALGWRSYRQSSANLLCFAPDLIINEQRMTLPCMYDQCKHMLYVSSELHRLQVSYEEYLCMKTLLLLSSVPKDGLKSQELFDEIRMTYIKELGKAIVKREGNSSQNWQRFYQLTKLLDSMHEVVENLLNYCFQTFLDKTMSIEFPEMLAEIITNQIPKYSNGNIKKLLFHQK
As to the kind of experiment: Radioligand binding with human glucocorticoid receptor cytosol ([3H]-dexamethasone competition). The settings on record: GRX cytosol expressed in insect SF21 cells, [3H]-Dex ~0.9 nM, 4° C. overnight; Ki by Cheng-Prusoff, KL ~1.5 nM; read-out: Ki (nM) GR.

Ki data for 17 substances are collected here from patent publication US6506766B1 (Abbott Laboratories, priority 1998, dated 2003).

As for “2,5-Dihydro-10-methoxy-2,2,4-trimethyl-(-methylene 1H-[1]benzopyrano[3,4-f]quinoline5-propanol [Example 62]”, the results for the Ki in assay [1] and in assay [2] were no less than 10000 nM and 12 nM, respectively.
Taken in the same sequence, the figures for “2,5-Dihydro-10-methoxy-2,2-[spiro(hexyl)]-5-allyl-1H-[1]benzopyrano[3,4-f]quinoline [Example 360]” were no less than 10000 nM and 33.7 nM.
Taken in the same sequence, the figures for “2,5-Dihydro-10-methoxy-5-(3-(N-methyl-N-(N-methylcarbonyl)aminocarbonyloxy)phenyl)-2,2,4-trimethyl-1H-[1]benzopyrano[3,4-f]quinoline [Example 312]” were no less than 10000 nM and 8.4 nM.
Taken in the same sequence, the figures for “2,5-Dihydro-10-methoxy-5-(3-(N-methyl-N-(N-methylcarbonyl)aminocarbonyloxy)phenyl)-2,2,4-trimethyl-1H-[1]benzopyrano[3,4-f]quinoline [Example 313]” were no less than 10000 nM and 6.4 nM.
For “2,5-Dihydro-10-methoxy-5-(3-butenyl)-2,2,4-trimethyl-1H-[1]benzopyrano[3,4-f]quinoline [Example 138]”, the inhibition constant (Ki) (usually a dissociation constant, usually derived from enzyme kinetics or from competition with a known ligand) was determined as 5600 nM in assay [1] and 2.2 nM in assay [2].
Taken in the same sequence, the figures for “2,5-Dihydro-10-methoxy-5-(3-hydroxy-3-propenyl)-2,2,4-trimethyl-1H-[1]benzopyrano[3,4-f]quinoline [Example 184]” were no less than 10000 nM and 40 nM.
The corresponding values for “10-Methoxy-5-(1-butylidene)-2,5-dihydro-5-phenyl-2,2,4-trimethyl-1H-[1]benzopyrano[3,4-f]quinoline [Example 356]” are 2970 nM and 15 nM.
The corresponding values for “10-Methoxy-5-(4,5-dimethyl-1,3-oxazol-2-yl)methyidene-2,5-dihydro-5-phenyl-2,2,4-trimethyl-1H-[1]benzopyrano[3,4-f]quinoline [Example 351]” are no less than 10000 nM and 93 nM.
“10-Methoxy-5-(5-methylisoxazol-3-yl)methyidene-2,5-dihydro-5-phenyl-2,2,4-trimethyl1H-[1]benzopyrano[3,4-f]quinoline [Example 349]”: the inhibitory constant (Ki) in assay [1] was no less than 10000 nM; in assay [2] it was 10.5 nM.
The corresponding values for “10-Methoxy-5-(but-3-enylidene)-2,5-dihydro-5-phenyl-2,2,4-trimethyl-1H-[1]benzopyrano[3,4-f]quinoline [Example 354]” are 1500 nM and 32 nM.
Turning to “10-Methoxy-5-(pyridin-2-yl)methyidene-2,5-dihydro-5-phenyl-2,2,4-trimethyl-1H-[1]benzopyrano[3,4-f]quinoline [Example 353]”, the inhibition constant (Ki) was no less than 10000 nM in assay [1] and 20 nM in assay [2].
Taken in the same sequence, the figures for “(+)(5R,3′R)-9-Hydroxy-5-[1-methyl-3-cyclohexenyl]-10-methoxy-2,2,4-trimethyl-2,5-dihydro-1H-[1]benzopyrano[3,4-f]quinoline [Example 239]” were 240 nM and 16.8 nM.
Consider “(−)(5S,3′R)-9-Hydroxy-5-[1-methyl-3-cyclohexenyl]-10-methoxy-2,2,4-trimethyl-2,5-dihydro-1H-[1]benzopyrano[3,4-f]quinoline [Example 241]”, for which the Ki worked out at 61.1 nM in assay [1] and 0.69 nM in assay [2].
The corresponding values for “rel (5R,3′S) 2,5-Dihydro-10-methoxy-5-(1-methyl-3-cyclohexenyl)-2,2,4-trimethyl-1H-[1]benzopyrano[3,4-f]quinoline [Example 153]” are no less than 10000 nM and 1.9 nM.
The corresponding values for “rel-(5S)-9-Hydroxy-5-[(3S)-(1-hydroxymethyl)cyclohexen-3-yl]-10-methoxy-2,2,4-trimethyl-2,5-dihydro-1H-[1]benzopyrano[3,4-f]quinoline [Example 414]” are 21800 nM and 93.2 nM.
The corresponding values for “rel-(5S,3′R)-9-Hydroxy-5-[1-methoxymethyl-3-cyclohexenyl]-10-methoxy-2,2,4-trimethyl-2,5-dihydro-1H-[1]benzopyrano[3,4-f]quinoline [Example 375]” are 1090 nM and 3 nM.
As for “rel-(5S,3′R)-9-Hydroxy-10-methoxy-5-[1-hydroxymethyl-3-cyclohexenyl]2,2,4-trimethyl-2,5-dihydro-1H-[1]benzopyrano[3,4-f]quinoline [Example 220]”, the inhibitory constant (Ki) was found to be 527 nM in assay [1] and 0.66 nM in assay [2].
